Results published in article PMC7034129, “C-2 phenyl replacements to obtain potent quinoline-based Staphylococcus aureus NorA inhibitors” (Journal of Enzyme Inhibition and Medicinal Chemistry, 2020).
Converted amounts (≈) assume the structure as drawn.

Key:
[1] = test system: human leukemic monocyte cell line (THP-1); assay: Cell viability assay (ATP bioluminescence); settings: ratio between CC50 (THP-1) and minimum EPI concentration able to reduce by 4-fold CPX MIC
[2] = Cell viability assay (ATP bioluminescence); settings: human

## CCCOc1ccc(-c2cc(OCCN(CC)CC)c3ccccc3n2)cc1 [Compound 1, reference compound]
[1]
  SI, selectivity index: 1.6
[2]
  CC50 at 24 h: 10 µg/mL (≈ 26.4 µM)
